System: NCI DTP 60 cell line panel
Experiment: NCI DTP 60 Cell Line screen: Growth Inhibition (GI50), Total Growth Inhibition (TGI), Lethal Concentration (LC50/LD)
Assay type: cell-based, human
Conditions: mean over NCI DTP 60 cell line panel; lethal concentration dose (cytotoxic effect)
Protocol: In particular, an algorithm based on the obtained in vitro cell culture values (i.e. growth inhibition values (GI50), or the total growth inhibition (TGI), or the lethal concentration (LC50)) of cell lines (e.g., NCI60 cells) subjected to treatment with an illudofulvene, and gene expression is determined in these same cell lines (e.g., by microarray analysis, reverse transcriptase polymerase chain reaction (RT-PCR), quantitative real-time PCR (qPCR), or next generation sequencing). After normalization, genes with, e.g., a Pearson correlation coefficient greater than about 0.5 or below about −0.5 to one of the obtained in vitro cell culture values, can be classified as biomarkers of sensitivity or resistance, respectively. A probability or significance value can also be calculated for the correlation between the obtained in vitro cell culture values (i.e. growth inhibition values (GI50), or the total growth inhibition (TGI), or the lethal concentration (LC50)) and the normalized expression of a specific gene.
One can determine the growth inhibition (GI50), total growth inhibition (TGI), or lethal concentration (LC50) for a drug for each of the cell lines in the NCI DTP 60 cell line panel. One can use these 3 values to search for correlations against all gene expressions in all cell lines using the NCI's publicly available CELL MINER Software. […]

`CC1=C2C(=C[C@@](C)(CO)[C@@H]2O)C(=O)[C@](C)(O)C12CC2` [Illudin S, illudin S, reference compound] was tested, and the “Mean LD50 cytotoxic” value was 511 nM.
